Tested on: hiPSC-CMs
Experiment: Optical measurement of action potential duration (APD90) in hiPSC-CMs using voltage-sensitive dye di-4-ANEPPS
Settings: Homo sapiens

`Cc1ccc(CCN(C)CCOc2ccc(C)cc2)cc1` was tested. Which activity at 0.001 µM (0.5 h, read-out: Changes in APD90 in hiPSC-CMs, 1 nM, 30 min exposure) did it give?
Its activity at 0.001 µM is 122%.

And the activity at 0.01 µM (0.5 h, read-out: Changes in APD90 in hiPSC-CMs, 10 nM, 30 min exposure)?
The activity at 0.01 µM was 96%.

And the activity at 0.03 µM (0.5 h, read-out: Changes in APD90 in hiPSC-CMs, 30 nM, 30 min exposure)?
Its activity at 0.03 µM is 101%.

And the activity at 0.1 µM (0.5 h, read-out: Changes in APD90 in hiPSC-CMs, 100 nM, 30 min exposure)?
Its activity at 0.1 µM is 112%.

What about the activity at 0.3 µM (0.5 h, read-out: Changes in APD90 in hiPSC-CMs, 300 nM, 30 min exposure) of the same compound?
The activity at 0.3 µM was about 170%.

What about the activity at 1 µM (0.5 h, read-out: Changes in APD90 in hiPSC-CMs, 1000 nM, 30 min exposure) of the same compound?
Its activity at 1 µM is 263%.

And the EC (50% APD prolongation) (read-out: D150 (concentration that prolongs the AP by 50%))?
The EC (50% APD prolongation) was 0.215 µM.

From article PMC5573420, “Correlation between human ether‐a‐go‐go‐related gene channel inhibition and action potential prolongation” (British Journal of Pharmacology, 2017)
